Measured affinities in a library of Ab-14 light chain variants

Binding partner: SARS-CoV-2 spike HR2 peptide, sequence PDVDLGDISGINAS.

Parent scFv Ab-14: VH joined to VL by a 15-residue (Gly4Ser)3 linker. Changes lie in the light chain CDRs alone.
VH: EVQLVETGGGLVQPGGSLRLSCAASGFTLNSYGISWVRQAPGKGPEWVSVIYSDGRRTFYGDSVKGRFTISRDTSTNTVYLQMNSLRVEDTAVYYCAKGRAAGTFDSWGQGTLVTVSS
VL: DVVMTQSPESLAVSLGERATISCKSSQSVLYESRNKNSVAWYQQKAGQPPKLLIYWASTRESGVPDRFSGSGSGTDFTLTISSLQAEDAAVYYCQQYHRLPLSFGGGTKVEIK

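Phage display of a naive human antibody library on the peptide gave the parent. Library AAYL50 holds single substitutions and randomly drawn double and triple substitutions in the CDRs. The scFvs were displayed on barcoded MATa yeast, the peptide on MATalpha yeast. Binding brings cells together so that they mate, and sequencing counts the barcode pairs among the diploids. Each replicate has its own calibration line, from reference interactions of the BCL2 family. There are three technical replicates.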

Each variant is given by its three light chain CDRs, as the data file delimits them; those of the parent are KSSQSVLYESRNKNSVA, WASTRES, QQYHRLPLS.
The Kd shown is the geometric mean over detected replicates; a lower Kd is a better binder.
Where no diploid with the target was found in any replicate, the entry reads "no signal": below detection, most likely a poor binder, though not proof of it.
Order: sorted from the lowest average up, undetected variants last.

CDR-L1	CDR-L2	CDR-L3	Kd	replicates with signal
KVSQSVLYEDRNKNSVA	EASTRES	QQYHRLPLS	460 pM	3 of 3
KSSQSGLYESRNKNSVA	WASTRES	QQYARLPLS	1.1 nM	3 of 3
KHSPSVLYESRNKNSVA	WASTRES	QQYHRLPLS	2.5 nM	3 of 3
KSSQSVRYESENKNSVA	WASTRES	QQYHRLPLS	3.1 nM	3 of 3
KSSQSNDYESRNKNSVA	WASTRES	QQYGRLPLS	4.0 nM	3 of 3
KSSQSVLYESRNKNAVA	WASTRES	QQYHGLPLS	4.9 nM	3 of 3
KSSQSVLYESRNKNSVA	WASTRES	QQYSRWNLS	6.9 nM	3 of 3
KSQQSVLYESFSKNSVA	WASTRES	QQYHRLPLS	7.4 nM	3 of 3
KSSQCVLYESRNKNSVA	EASHRES	QQYHRLPLS	9.3 nM	3 of 3
KSSQSVLYGSRNKNSVA	CVSTRES	QQYHRLPLS	14 nM	3 of 3
KSSCSVLYESRNKNSVA	WASTRES	QDYHRLPLS	15 nM	3 of 3
KSSQSLLYESRNKNSVA	WASNRES	QQYHRKPLS	20 nM	3 of 3
NQSQSVLYESRHKNSVA	WASTRES	QQYHRLPLS	23 nM	3 of 3
KSSQSVLYESRNCNSVA	WASNRES	QDYHRLPLS	25 nM	3 of 3
KSQQSSLNESRNKNSVA	WASTRES	QQYHRLPLS	31 nM	3 of 3
KSSQSVLYESRNKNSVA	WASTRES	QQYWRKPLR	67 nM	3 of 3
KSSQSDLYESRNKNSVA	WASTRES	QLYSRLPLS	76 nM	3 of 3
KSSSSSLYESRNKTSVA	WASTRES	QQYHRLPLS	87 nM	3 of 3
KNSQSVLYESRNANSVA	WASTRES	QQYHRLWLS	170 nM	3 of 3
KSSQSVLYESRNKNSVA	WASTRES	WQYHRLPCS	250 nM	1 of 3
SSSQSVPYESRNKNSVA	WASTRES	QQYHRLPLK	320 nM	3 of 3
KSSQQVLYESRNKNSVA	RASTHES	QQYHRLPLS	370 nM	3 of 3
ASSQSVLYESTNKNSVA	WASTRES	QQMHRLPLS	560 nM	3 of 3
KSSQSVLYESSAKNSVA	WLSTRES	QQYHRLPLS	720 nM	2 of 3
KSSQIVLYESMNKNSVA	WASTRES	QQYHRLPLN	1.2 µM	3 of 3
KSSQSVKYESFNKNWVA	WASTRES	QQYHRLPLS	1.4 µM	2 of 3
KGSQSVLYESRNDNSVA	WASTRES	QQIHRLPLS	1.6 µM	1 of 3
KSSQSKLYECRNKNSVA	WASTRES	QQYHRLPLS	1.7 µM	1 of 3
KRSQSVLYESRNKNSVA	WASTRES	QQYHRTPDS	2.1 µM	3 of 3
KSSQSVLYESINKNIVA	WASTREM	QQYHRLPLS	2.2 µM	1 of 3
KSSQSALYESRNKNSVA	WASTVES	QQYNRLPLS	2.9 µM	3 of 3
KSSQSVLTESRNKNSVA	WASTRES	QQYVRLPAS	3.2 µM	2 of 3
KSSHSVLYESRNKNQVA	WHSTRES	QQYHRLPLS	3.8 µM	1 of 3
KSSQSVLYESRNKNSVA	WASTRFC	QQYHRLPLG	4.1 µM	2 of 3
KSSQSFLYYSRNKNSVA	WASARES	QQYHRLPLS	4.9 µM	2 of 3
KSSKSVLYESRNKNSLA	WVSTRES	QQYHRLPLS	6.1 µM	1 of 3
KSSQSVLYESRNKDSVA	WFSTSES	QQYHRLPLS	9.3 µM	1 of 3
KSSQSVLYESRNKNSVS	WCSTRMS	QQYHRLPLS	11 µM	1 of 3
TYSQSVLYESRNKNSVA	WASTRES	QQYHRLPTS	11 µM	2 of 3
PSSQSVLYESRNKNSVA	WASTRES	QQYHRLPLQ	12 µM	2 of 3
KHSQSVLYESRNKNSFA	WAITRES	QQYHRLPLS	13 µM	1 of 3
KSSQSVLYESHNKNSVA	WASTRES	QQYHRHPQS	14 µM	1 of 3
KSSQSVLYESRNKNSRA	WHSTRTS	QQYHRLPLS	17 µM	2 of 3
KSSQSVLYESRHKNYVA	WASTRES	QQYHRLPLS	41 µM	2 of 3
KSSQSVIYESRNKNSVA	WASTYES	QQYHRIPLS	42 µM	2 of 3
KSSQSVLYESTNKTSVA	WASTRES	QQYHRLLLS	61 µM	1 of 3
KSSQSVLYESRNSNSVA	WASTRES	QQYHRVPLL	64 µM	1 of 3
KNSQSVLYESRNKNSVA	WASTRES	QQRHRLPLS	81 µM	1 of 3
KSSQSVLYESRQKNSVL	WASTRES	QQYHPLPLS	100 µM	1 of 3
KSSQSVLYESRNKNSVA	WASTREV	HQYHRLPLN	140 µM	1 of 3
KSSFSVLYESRNKSSVA	WLSTRES	QQYHRLPLS	190 µM	3 of 3
KSSLEVLYESRNKNSVA	WASTRES	QQYHRLFLS	320 µM	1 of 3
KSSQSVLYESRNKNSVA	WASTRES	WQIHTLPLS	1.1 mM	1 of 3
KSSQSVLYCSRNKTSVA	WNSTRES	QQYHRLPLS	4.2 mM	1 of 3
KSSQSVLYESRNKNIVA	WASLRES	QQYHRLPAS	no signal	0 of 3
KSSQEVLYKSRNKNSVA	WASTRES	LQYHRLPLS	no signal	0 of 3
KSLQSVLYEQRNKNTVA	WASTRES	QQYHRLPLS	no signal	0 of 3
KSSQYVLYESRNKNSKA	WASTRES	QQYHRLPLS	no signal	0 of 3
KSSQSVLPESRNDVSVA	WASTRES	QQYHRLPLS	no signal	0 of 3
KSSQSVLYESRFKNSVA	WASTRES	QQRPRLPLS	no signal	0 of 3
KSSQSVLYESRNKNMVA	WASTRES	QQYHRLITS	no signal	0 of 3
KSAQSVLYESRNKNSVW	WASTRES	QQYHRLPKS	no signal	0 of 3
KSSQSVLYESRNKNFVA	WASTYES	QQYHRSPLS	no signal	0 of 3
KSSQSVLYESRNKNSVA	PASTRES	PQYHRWPLS	no signal	0 of 3
KSSQSVLYESRNKNSVK	WASTRES	QQKHRWPLS	no signal	0 of 3
KYSQSVLYESRNKNSME	WASTRES	QQYHRLPLS	no signal	0 of 3

Again, the first 11 entries without any signal:

CDR-L1	CDR-L2	CDR-L3	Kd	replicates with signal
KSSQSVLYESRNKNIVA	WASLRES	QQYHRLPAS	no signal	0 of 3
KSSQEVLYKSRNKNSVA	WASTRES	LQYHRLPLS	no signal	0 of 3
KSLQSVLYEQRNKNTVA	WASTRES	QQYHRLPLS	no signal	0 of 3
KSSQYVLYESRNKNSKA	WASTRES	QQYHRLPLS	no signal	0 of 3
KSSQSVLPESRNDVSVA	WASTRES	QQYHRLPLS	no signal	0 of 3
KSSQSVLYESRFKNSVA	WASTRES	QQRPRLPLS	no signal	0 of 3
KSSQSVLYESRNKNMVA	WASTRES	QQYHRLITS	no signal	0 of 3
KSAQSVLYESRNKNSVW	WASTRES	QQYHRLPKS	no signal	0 of 3
KSSQSVLYESRNKNFVA	WASTYES	QQYHRSPLS	no signal	0 of 3
KSSQSVLYESRNKNSVA	PASTRES	PQYHRWPLS	no signal	0 of 3
KSSQSVLYESRNKNSVK	WASTRES	QQKHRWPLS	no signal	0 of 3

Parent in this assay: reference entry 4.4 nM, copy in this library 48 nM.
Empty control strains, which show no peptide, gave a signal in 18% of pairings with library AAYL50; the median was 15 µM and 95% of these signals were weaker than 970 nM. No background was subtracted.

Source: Engelhart et al. 2022 (doi:10.1038/s41597-022-01779-4), MIT Lincoln Laboratory and A-Alpha Bio; data file from the FLAb repository.